# scFv variants of Ab-14 (heavy chain) against a SARS-CoV-2 spike peptide

Target: peptide PDVDLGDISGINAS, taken from heptad repeat 2 (HR2) of SARS-CoV-2 spike.

The variants keep the light chain, the linker and the frameworks of Ab-14 (scFv order VH, a (GGGGS)3 linker, VL).
VH: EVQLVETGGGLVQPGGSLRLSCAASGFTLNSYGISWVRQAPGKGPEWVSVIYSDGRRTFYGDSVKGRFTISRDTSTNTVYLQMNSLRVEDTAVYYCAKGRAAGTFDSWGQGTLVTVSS
VL: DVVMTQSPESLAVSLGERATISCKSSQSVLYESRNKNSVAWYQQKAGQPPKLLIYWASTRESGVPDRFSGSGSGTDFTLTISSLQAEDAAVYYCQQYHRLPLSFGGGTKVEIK

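The parent was found by panning a naive human phage display library on the peptide. These sequences belong to a second round, designed from the earlier measurements on random variants of the parent. Group labels follow the data file (Ctrl: baseline library sampled from a position-specific scoring matrix, with some repeated check sequences; Rand: our label for a block that the file lists under HC and that is probably the random mutants of the ten best first-round binders; GP: Gaussian process model; GPLM: also part of the Gaussian process libraries; HC: hill climbing; Gen: genetic algorithm; Gibbs: Gibbs sampling; a sequence that several methods proposed may carry one label only). The assay is AlphaSeq: two haploid yeast populations carry antibody and antigen on their surface. The frequency of each diploid, read from paired DNA barcodes, reflects how well the two displayed proteins bind. A regression on co-assayed BCL2-family reference pairs converts the normalised counts of each replicate to an apparent Kd. Each pool was mated in six replicate cultures.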

Positions count from residue 1 of the parent VH; T28C puts C in place of T.
This list holds designs with at most six substitutions.
Values are apparent Kd, the geometric mean of the replicates that gave a signal; lower means stronger binding.
An entry "nd" has no value in the source: the pair was not observed among the diploids in any replicate. This suggests poor binding but is not conclusive.
In the paper, a design with two or fewer of six values counts as a poor binder.
Background: pairings of all heavy chain designs with three empty control strains gave a value in 1% of cases (median 120 nM, 5th percentile 7.0 nM). Values in that range, when seen in few replicates, are hard to tell from nonspecific mating.
A sequence measured in both rounds can read differently, since the two assays cover different ranges.

changes	group	apparent Kd	replicates with signal
T28C S31E G61A S107E	GP_HC	29 nM	6 of 6
S31D G61T S63A A101F	GPLM_HC	9.1 nM	6 of 6
T28W S31D G61A R100H S107E	GP_HC	30 nM	5 of 6
S31K I34S	Ctrl	nd	0 of 6
S31D I51W G103L F105L D106I	Rand	nd	0 of 6
T28E S31M G61A R100K	GP_Gen	nd	0 of 6
S31M	Ctrl	17 nM	6 of 6
T28N G61V A101E	GPLM_Gen	5.2 nM	6 of 6
S53N G61E R100Q A101L	Rand	270 nM	2 of 6
T28W N30Y Y32F A101N	Ctrl	38 nM	1 of 6
S63D A101L	Ctrl	78 nM	6 of 6
S31E A101F S107K	GPLM_HC	34 nM	6 of 6
S53A G61K F105N D106K	Rand	nd	0 of 6
R56H R100T	Ctrl	nd	0 of 6
S31D I51M G61W S63Q R100T T104K	Ctrl	nd	0 of 6
T28W S31E A101L	GP_Gen	30 nM	4 of 6
G55A F59W G61S A102G	Rand	84 nM	5 of 6
N30E R100K	GPLM_Gibbs	31 nM	3 of 6
T28S S31E R56Y A101T	GPLM_Gen	1.7 nM	6 of 6
G26K N30K I34G G61H	Ctrl	nd	0 of 6
F27A S31E V64R	Ctrl	nd	0 of 6
S35Q T58V G61K A102S S107D	Ctrl	nd	0 of 6
T28E S53A R100K S107C	GP_Gen	11 nM	5 of 6
T28D G99S A101C S107D	Ctrl	nd	0 of 6
T28D G61I R100M	GP_Gen	2.2 nM	6 of 6
T28D R56W G61T A101T	GP_Gibbs	3.6 nM	6 of 6
S31D Y52T R100T A102D	Ctrl	nd	0 of 6
G61K R100Q A101E S107N	GPLM_Gibbs	1.9 nM	6 of 6
G61N R100V D106S	Ctrl	nd	0 of 6
T28H R56V S107D	Ctrl	nd	0 of 6
F27K T28S S63E A101T	GP_Gibbs	530 nM	1 of 6
T28S S31E G61E A101N	GP_Gibbs	170 pM	6 of 6
G26Y T28E R100N A101E S107T	GP_Gibbs	2.6 nM	1 of 6
T28D G61Q R100H	GP_Gen	990 pM	6 of 6
T28P S31E F59Y	GP_Gibbs	nd	0 of 6
T28S G61A S63M A101T	GPLM_Gen	3.8 nM	5 of 6
T28S N30K R100Q A102C G103A D106E	Ctrl	nd	0 of 6
F27E R56Q F105W	Ctrl	4.4 µM	2 of 6
R56K T104P	Ctrl	190 nM	5 of 6
S31Q R56W G61S A101Q	GP_HC	4.1 nM	6 of 6
Y60M A102E	Ctrl	nd	0 of 6
F59A R100I	Ctrl	nd	0 of 6
G26K T28S G61I A101M	GP_Gibbs	nd	0 of 6
T28N G61V R100N A101T	GP_Gen	1.3 nM	5 of 6
T28W S31E G61K R100Q A101T	GP_Gibbs	14 nM	3 of 6
T28A R56M	Ctrl	65 nM	5 of 6
S31D F59Q G61H	Rand	43 nM	2 of 6
T28D A101I T104S	GP_HC	2.1 nM	6 of 6
T28E S31E G61S A101Q	GP_Gen	210 pM	5 of 6
T28V S31E G61K	GP_HC	2.2 nM	5 of 6
N30S G61S A102G	Rand	150 nM	5 of 6
F27R F105W	Ctrl	nd	0 of 6
G61K T104Y D106S	Ctrl	nd	0 of 6
T28D A101I S107V	GP_Gen	nd	0 of 6
N30D A101E S107Y	Ctrl	5.2 nM	5 of 6
T28M S31D S53A F59A G61D R100P	Ctrl	nd	0 of 6
F59Q K65E	Ctrl	270 nM	1 of 6
S31Q R56K G61S D106T	GP_HC	nd	0 of 6
G61D R100Q A101V T104M	GPLM_HC	nd	0 of 6
S63D S107W	Ctrl	36 nM	4 of 6
T28S S31E R100K S107W	GP_Gen	1.2 nM	6 of 6
N30K G103A	Ctrl	nd	0 of 6
R56M G61S R100N A101T	GP_HC	850 pM	6 of 6
S31Q G61I A101Q	GPLM_HC	4.4 nM	6 of 6
G61I S63D R100K	GP_Gibbs	24 nM	6 of 6
N30R T58N R100K S107T	Ctrl	nd	0 of 6
T28A G61D R100Q A101M	GP_HC	5.7 nM	6 of 6
T58V R100L F105W	Ctrl	nd	0 of 6
V64Q A101N	Ctrl	nd	0 of 6
S31E R56H G61S A101T	GP_HC	4.1 nM	5 of 6
F27H N30G S31E F59Y R100Y	Ctrl	nd	0 of 6
N30E S53A R100K S107T	GP_Gen	980 pM	6 of 6

Picked from the list: the 9 lowest averages where every replicate gave a value.

| changes | group | apparent Kd | replicates with signal |
|---|---|---|---|
| T28S S31E G61E A101N | GP_Gibbs | 170 pM | 6 of 6 |
| R56M G61S R100N A101T | GP_HC | 850 pM | 6 of 6 |
| N30E S53A R100K S107T | GP_Gen | 980 pM | 6 of 6 |
| T28D G61Q R100H | GP_Gen | 990 pM | 6 of 6 |
| T28S S31E R100K S107W | GP_Gen | 1.2 nM | 6 of 6 |
| T28S S31E R56Y A101T | GPLM_Gen | 1.7 nM | 6 of 6 |
| G61K R100Q A101E S107N | GPLM_Gibbs | 1.9 nM | 6 of 6 |
| T28D A101I T104S | GP_HC | 2.1 nM | 6 of 6 |
| T28D G61I R100M | GP_Gen | 2.2 nM | 6 of 6 |

Source: Li et al. 2023 (doi:10.1038/s41467-023-39022-2), MIT Lincoln Laboratory and A-Alpha Bio; data file from the FLAb repository.